{"sequences": {"note": "Amino acid sequences for entries named in this document (tags omitted). Residues count along the entry.", "UniProt Q16552, 24-155 limits assumed": "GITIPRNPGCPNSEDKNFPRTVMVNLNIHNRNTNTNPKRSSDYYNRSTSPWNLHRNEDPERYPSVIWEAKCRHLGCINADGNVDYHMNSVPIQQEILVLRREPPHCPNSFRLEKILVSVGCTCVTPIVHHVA"}, "source": "patent US20260083708A1", "about": "“IL-17 MODULATORS AND USES THEREOF” (NNOCARE PHARMA INC., priority 2024, published 2026)", "key": {"[1]": {"test_system": "IL-17AF-induced IL-17 signaling pathway", "assay": "Inhibition of IL-17AF-induced IL-17 signaling pathway", "settings": "read-out: IC50 for Inhibiting IL-AF Signaling; IL-17AF used instead of IL-17AA", "source_text": "(§1) Interleukin-17 (IL-17) reporter cell line (HEK-Blue IL-17, InvivoGen, Catalog Number hkb-i117) is created by genetically engineering human IL-17RA/IL-17RC heterodimeric receptor and downstream adapter protein ACT1 into human embryonic kidney 293 cells (HEK293). These cells also express secreted embryonic alkaline phosphatase (SEAP) reporter gene induced by NF-κB and AP-1. Therefore, IL-17AA can activate NF-κB and AP-1 signaling pathways inside the cells by binding to IL-17RA/RC on cell membrane, leading to expression of SEAP protein. After a colorimetric reaction between SEAP protein and Quanti-Blue solution, the absorbance at 620 nm is measured using a microplate reader (BioTek H1M, Agilent, Catalog Number SH1M-SN) to determine IL-17AA-activated signaling pathway.\nIn the experiment, HEK-Blue IL-17 cells were cultured at 37° C. under 5% CO2 conditions using the recommended medium from InvivoGen's instruction. Compounds were serially diluted starting from 10 μM. […] The group without tested compound had the highest absorbance at 620 nm, and the group without IL-17AA had the lowest absorbance at 620 nm.\n(§2) Therefore, the percentage of inhibition of tested compound was calculated as\nExperimental results were analyzed using XLfit (IDBS) for 4-parameter nonlinear fitting analysis to provide the IC50 value for each tested compound (Table 1). […]"}, "[2]": {"test_system": "IL-17AA-induced IL-17 signaling pathway", "assay": "Inhibition of IL-17AA-induced IL-17 signaling pathway in HEK-Blue IL-17 reporter cells (SEAP)", "settings": "read-out: IC50 for Inhibiting IL-AA Signaling; HEK-Blue IL-17 cells, IL-17AA 2.5 ng/mL, 20 hours", "source_text": "Example 43. Inhibition of IL-17AA-Induced IL-17 Signaling Pathway\nas §1\nIn the experiment, HEK-Blue IL-17 cells were cultured at 37° C. under 5% CO2 conditions using the recommended medium from InvivoGen's instruction. […] The group without tested compound had the highest absorbance at 620 nm, and the group without IL-17AA had the lowest absorbance at 620 nm.\nas §2\nExperimental results were analyzed using XLfit (IDBS) for 4-parameter nonlinear fitting analysis to provide the IC50 value for each tested compound (Table 1)."}, "IL-17AA and IL-17RA": {"target": "IL-17AA and IL-17RA (Homo sapiens, UniProt Q16552)", "assay": "Competitive inhibition of human IL-17AA and IL-17RA binding (HTRF)", "settings": "read-out: IC50 for Inhibiting IL-AA/IL-RA Binding; recombinant IL-17AA (His-tag) and IL-17RA (hFc-tag)", "description": "Example 42. Competitive Inhibition of Human IL-17AA and IL-17RA Binding\nRecombinant IL-17AA (His-tag, Catalog Number 12047-H07B) and IL-17RA (hFc-tag, Catalog Number 10895-H02H) were purchased from Sino Biological. In the experiment, 10 μL of IL-17AA (1 nM) or IL-17RA (1 nM) was added to 10 μL of anti-6His-Tb (0.4 nM, Revvity, Catalog Number 61HISTLF) or anti-human IgG-d2 (1 μg/mL, anti-human IgG-d2, Revvity, Catalog Number 61HFCDAF), respectively and incubated at room temperature for 1 hour. Compounds were serially diluted starting from 10 μM. 5 μL of each compound solution was incubated with 5 μL of a mixture of IL-17AA and anti-6His-Tb at room temperature for 2 hours. After pre-incubation, to which was added 10 μL of a mixture of IL-17RA and anti-human IgG-d2, and incubation was continued for additional 20 minutes. Subsequently, a microplate reader (Envision, PerkinElmer) was used to detect fluorescence intensity at 615 nm and 665 nm, and the ratio of intensity thereof indicates the degree of IL-17AA and IL-17RA interaction. […]\nas §2\nExperimental results were analyzed using XLfit (IDBS) for 4-parameter nonlinear fitting analysis, to provide the IC50 value for each tested compound (Table 1)."}}}
{"smiles": "Cc1nonc1C(=O)N[C@H](C(=O)Nc1ccc([C@H](C)[C@@H](NC(=O)N(C)C2CC2)c2ncnn2CC2CC2)cc1F)C(C1CC1)C1CC1", "values": [{"measurement": "IC50", "setting": "[1]", "result": 1.5, "unit": "nM"}, {"measurement": "IC50", "setting": "[2]", "result": 0.7, "unit": "nM"}, {"measurement": "IC50", "setting": "IL-17AA and IL-17RA", "result": 6.5, "unit": "nM"}]}
